This passage reports IC50 results from ChEMBL document CHEMBL1145459, “Novel vanilloid receptor-1 antagonists: 2. Structure-activity relationships of 4-oxopyrimidines leading to the selection of a clinical candidate” (J Med Chem, 2007).

Amino acid sequences for entries named in this document (tags omitted).
UniProt O35433, whole entry: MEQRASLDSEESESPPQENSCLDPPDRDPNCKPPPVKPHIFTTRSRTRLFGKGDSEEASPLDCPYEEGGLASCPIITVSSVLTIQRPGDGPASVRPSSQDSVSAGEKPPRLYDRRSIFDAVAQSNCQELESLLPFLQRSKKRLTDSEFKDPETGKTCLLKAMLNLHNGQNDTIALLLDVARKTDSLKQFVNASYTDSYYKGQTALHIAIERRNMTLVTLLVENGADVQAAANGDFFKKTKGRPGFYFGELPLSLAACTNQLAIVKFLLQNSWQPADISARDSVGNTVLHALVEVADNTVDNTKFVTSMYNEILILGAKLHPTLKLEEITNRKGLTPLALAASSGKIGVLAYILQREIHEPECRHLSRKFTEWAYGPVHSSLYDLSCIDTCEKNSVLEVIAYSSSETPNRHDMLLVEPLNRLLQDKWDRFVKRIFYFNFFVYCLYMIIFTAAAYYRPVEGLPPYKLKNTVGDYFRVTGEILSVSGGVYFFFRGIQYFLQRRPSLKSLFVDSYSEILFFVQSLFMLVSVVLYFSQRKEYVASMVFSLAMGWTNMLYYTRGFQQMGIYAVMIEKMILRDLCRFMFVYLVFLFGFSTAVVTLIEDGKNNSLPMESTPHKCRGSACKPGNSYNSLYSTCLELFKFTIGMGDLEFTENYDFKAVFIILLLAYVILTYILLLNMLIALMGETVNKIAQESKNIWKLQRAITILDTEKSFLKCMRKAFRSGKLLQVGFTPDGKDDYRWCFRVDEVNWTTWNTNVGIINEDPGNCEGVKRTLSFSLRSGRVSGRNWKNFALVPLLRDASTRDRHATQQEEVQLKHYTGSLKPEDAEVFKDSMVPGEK

The target of this assay is Transient receptor potential cation channel subfamily V member 1 (Rattus norvegicus, UniProt O35433). The assay is described as follows: Antagonist activity at rat TRPV1 expressed in CHO cells assessed as inhibition of capsaicin-induced calcium influx. The assay is classed as functional, cell-based.

Consider `FC(F)(F)c1ccc(-c2cc(Oc3ccc4ccccc4n3)ncn2)cc1`, for which the half-inhibitory concentration (IC50) amounted to 0.73 µM.
The result for `CCC(=O)Nc1nc2c(Oc3cc(-c4ccc(C(F)(F)F)cc4)ncn3)cccc2s1` reads 1.1 µM.

Usually IC50 stands for the midpoint of a concentration-inhibition curve.
